Screens: PubChem, ICCB-Longwood Screening Facility, Harvard Medical School
Only a selection was taken, and hits are over-represented in it overall.
GIV-Gai inh = inhibitors of GIV peptide binding to Galpha-i3, primary screen, biochemical, fluorescence polarization, FITC-GIV GBA peptide, rat Galphai3; hit rate 0.42% among 210,000; percent of control (FP), % (concentration not given with the values); 90 min; stronger effect = lower value; scaled: aluminum fluoride 0%, vehicle 100%; Guanine nucleotide-binding protein G(i) subunit alpha-3 (Rattus norvegicus), P08753;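 active = replicate mean at 85% of control or lower, very high polarization wells dropped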;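 note: wells of about 15 µL received 100 nL stock; the first replicate is given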
HCMV NEC inh = inhibitors of HCMV UL50-UL53 interaction, biochemical, HTRF. HCMV UL50-UL53 nuclear egress complex (human cytomegalovirus). normalized percent inhibition. inhibition, % (test concentration not listed). 0.15% of 190,000 active. AID 1918969, 2023; in the data active means inhibition above about 27%, passing the limit was not always enough
An asterisk follows results filed as active; x = not tested or not shown.

Chains of the proteins cited; added tags and fusions are not shown.
Guanine nucleotide-binding protein G(i) subunit alpha-3 (Rattus norvegicus), P08753, UniProt P08753, whole entry, looked up: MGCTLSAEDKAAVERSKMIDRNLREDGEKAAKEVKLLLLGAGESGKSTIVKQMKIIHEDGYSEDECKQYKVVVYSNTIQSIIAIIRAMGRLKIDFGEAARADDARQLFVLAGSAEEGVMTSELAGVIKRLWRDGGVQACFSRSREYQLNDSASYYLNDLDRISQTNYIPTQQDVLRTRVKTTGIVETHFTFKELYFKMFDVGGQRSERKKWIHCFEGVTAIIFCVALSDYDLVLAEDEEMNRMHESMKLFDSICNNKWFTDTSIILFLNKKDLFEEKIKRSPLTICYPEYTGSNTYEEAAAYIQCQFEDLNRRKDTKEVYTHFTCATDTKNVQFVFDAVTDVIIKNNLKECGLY

SMILES: CCOC(=O)COc1ccc(Br)cc1C=C1C(=O)NC(=O)NC1=O
  GIV-Gai inh = 97.0 | HCMV NEC inh = 57.4*

SMILES: CN1C(=O)C(=Cc2cc(Br)ccc2OCc2ccccc2)C(=O)N(C)C1=O
  GIV-Gai inh = 105.4 | HCMV NEC inh = -3.4

SMILES: Cc1ccc(OCCOc2ccc(Br)cc2C=C2C(=O)NC(=S)NC2=O)cc1
  GIV-Gai inh = 94.8 | HCMV NEC inh = -25.0

SMILES: CCOc1cc(C=C2C(=O)NC(=S)NC2=O)ccc1OCc1ccccc1Cl
  GIV-Gai inh = 104.6 | HCMV NEC inh = -11.0

SMILES: O=C1NC(=S)NC(=O)C1=Cc1ccc(OCc2ccccc2)c(Br)c1
  GIV-Gai inh = 99.3 | HCMV NEC inh = 66.5*

SMILES: O=C1NC(=O)C(=Cc2cc(Br)ccc2OCc2ccccc2)C(=O)N1
  GIV-Gai inh = 105.8 | HCMV NEC inh = 89.3*

SMILES: CC(OCCCN)c1ccccc1 (stereo not given)
  GIV-Gai inh = x | HCMV NEC inh = -9.2

SMILES: COC(=O)C1=NNC(c2ccccc2)(c2ccccc2)C1
  GIV-Gai inh = x | HCMV NEC inh = -16.0

SMILES: O=C(O)C1CC2CC3CC(C2)CC1(O)C3 (stereo not given)
  GIV-Gai inh = x | HCMV NEC inh = 3.0

SMILES: CN(C)c1ccc(-c2oncc2C#N)cc1
  GIV-Gai inh = x | HCMV NEC inh = -25.6

The list goes on; the last five above are carried over.
SMILES: O=C1NC(=O)C(=Cc2cc(Br)ccc2OCc2ccccc2)C(=O)N1
  GIV-Gai inh = 105.8 | HCMV NEC inh = 89.3*

SMILES: CC(OCCCN)c1ccccc1 (stereo not given)
  GIV-Gai inh = x | HCMV NEC inh = -9.2

SMILES: COC(=O)C1=NNC(c2ccccc2)(c2ccccc2)C1
  GIV-Gai inh = x | HCMV NEC inh = -16.0

SMILES: O=C(O)C1CC2CC3CC(C2)CC1(O)C3 (stereo not given)
  GIV-Gai inh = x | HCMV NEC inh = 3.0

SMILES: CN(C)c1ccc(-c2oncc2C#N)cc1
  GIV-Gai inh = x | HCMV NEC inh = -25.6

SMILES: COCCNS(=O)(=O)c1c(C)[nH]c(C)c1-c1nnc(C2CCC2)o1
  GIV-Gai inh = 108.1 | HCMV NEC inh = x

SMILES: O=C1CC2c3ccccc3C1C1C(=O)N(c3ccc(Cl)c(Cl)c3)C(=O)C21 (stereo not given)
  GIV-Gai inh = 111.6 | HCMV NEC inh = x

SMILES: O=C1c2ccccc2-c2c(Nc3ccccc3)c(=O)[nH]c3cccc1c23
  GIV-Gai inh = 111.2 | HCMV NEC inh = x

SMILES: Nc1c2c3c(c(Cl)ccc3[nH]c1=O)C(=O)c1ccccc1-2
  GIV-Gai inh = 102.3 | HCMV NEC inh = x

SMILES: CCCCNc1c2c3c(cccc3[nH]c1=O)C(=O)c1ccccc1-2
  GIV-Gai inh = -47.8* | HCMV NEC inh = -57.5

SMILES: O=C1c2ccccc2-c2c(NCCc3ccccc3)c(=O)[nH]c3cccc1c23
  GIV-Gai inh = -73.2* | HCMV NEC inh = x

SMILES: Cc1ccc(-c2noc(C3CC3)n2)cc1S(=O)(=O)NC(C)C(=O)Nc1nccs1 (stereo not given)
  GIV-Gai inh = 111.6 | HCMV NEC inh = x

SMILES: CCOc1cc(CCC(=O)NCCn2ccnc2C)on1
  GIV-Gai inh = 98.8 | HCMV NEC inh = -25.4

SMILES: Cc1cc(C)c(S(=O)(=O)Nc2cnc(N3CCCC3)c(C(=O)O)c2)cc1C
  GIV-Gai inh = 72.1* | HCMV NEC inh = -20.8

SMILES: COc1ccc(OC)c(S(=O)(=O)Nc2cnc(N3CCCC3)c(C(=O)O)c2)c1
  GIV-Gai inh = 93.7 | HCMV NEC inh = -26.6

SMILES: Cc1ccc(NC(=O)Cn2nc(N(C)C)c3ccccc3c2=O)c(C)c1
  GIV-Gai inh = 104.2 | HCMV NEC inh = x

SMILES: O=C1CC(=O)N(Cc2ccco2)C(=O)N1
  GIV-Gai inh = 58.5* | HCMV NEC inh = 86.7*

SMILES: O=C1CC(=O)N(Cc2cccs2)C(=O)N1
  GIV-Gai inh = 114.5 | HCMV NEC inh = -4.8

SMILES: Cc1ncc(CO)c(/C=N/N=C/c2c(O)ccc3ccccc23)c1O
  GIV-Gai inh = 117.1 | HCMV NEC inh = -3.6

SMILES: Cc1ccc(C(O)CN=Cc2c(O)ccc3ccccc23)cn1 (stereo not given)
  GIV-Gai inh = x | HCMV NEC inh = 61.8*

SMILES: Cc1ccc(S(=O)(=O)Nc2ccc3oc(C)c(C(=O)OC(C)C)c3c2)c(C)c1
  GIV-Gai inh = 108.3 | HCMV NEC inh = -20.2

SMILES: Cc1cc2ncn(C(=O)CCCOc3ccccc3)c2cc1C
  GIV-Gai inh = 102.9 | HCMV NEC inh = x

SMILES: N#Cc1c(N)nc(SCC(=O)c2ccc(Br)cc2)c(C#N)c1-c1ccc(O)cc1
  GIV-Gai inh = 96.6 | HCMV NEC inh = 8.9

SMILES: N#Cc1c(N)nc(SCC(=O)c2ccccc2)c(C#N)c1-c1ccc(O)cc1
  GIV-Gai inh = 100.0 | HCMV NEC inh = 29.6*

SMILES: Cc1ccc(C)c(OCCn2cc(/C=C3\C(=N)N4N=C(S(C)(=O)=O)SC4=NC3=O)c3ccccc32)c1
  GIV-Gai inh = 100.1 | HCMV NEC inh = -18.7

SMILES: N=C1/C(=C\c2cn(CCOc3ccccc3Cl)c3ccccc23)C(=O)N=C2SC=NN12
  GIV-Gai inh = 10.8* | HCMV NEC inh = -0.2

SMILES: CCOC(=O)c1cc(-c2ccc(F)cc2)n(CCC(=O)Nc2nc3ccc(C)cc3s2)c1C
  GIV-Gai inh = 104.6 | HCMV NEC inh = x

SMILES: Cc1[nH]n(-c2ccccc2)c(=O)c1N=O
  GIV-Gai inh = x | HCMV NEC inh = 37.9*

SMILES: Cc1[nH]n(-c2ccccc2)c(=O)c1/C=N/O
  GIV-Gai inh = 97.2 | HCMV NEC inh = -35.0

SMILES: COc1ccc(C(=O)CC2(O)C(=O)N(Cc3ccccc3)c3ccc(Br)cc32)cc1 (stereo not given)
  GIV-Gai inh = 99.5 | HCMV NEC inh = -12.8

SMILES: CN1CCc2c(sc3c2C(=O)NC(c2ccc(OC(=O)c4ccc(Cl)cc4)cc2)N3)C1 (stereo not given)
  GIV-Gai inh = 220.9 | HCMV NEC inh = -92.9

SMILES: CN1CCc2c(sc3c2C(=O)NC(c2ccc(OC(=O)c4ccccc4)cc2)N3)C1 (stereo not given)
  GIV-Gai inh = 23.1* | HCMV NEC inh = -122.7

SMILES: CCOC(=O)c1cnc2c(C)cc(C)cc2c1Nc1cccc(C(=O)OC)c1
  GIV-Gai inh = 104.1 | HCMV NEC inh = x

SMILES: Cc1ccc2c(=O)c(C(=O)c3ccccc3)cn(CC(=O)Nc3ccccc3)c2n1
  GIV-Gai inh = 113.4 | HCMV NEC inh = x

SMILES: Cc1ccc2c(=O)c(C(=O)c3ccccc3)cn(CC(=O)Nc3ccc(C)c(F)c3)c2n1
  GIV-Gai inh = 139.1 | HCMV NEC inh = 72.5*

SMILES: CCc1ccccc1NC(=O)c1ccc(S(=O)(=O)N(C)C)cc1
  GIV-Gai inh = x | HCMV NEC inh = -13.0

SMILES: COc1cccc(CN2C(=O)c3cc4occc4n3CC2(C)C(=O)NC2CCC(C)CC2)c1 (stereo not given)
  GIV-Gai inh = 105.5 | HCMV NEC inh = -16.4

SMILES: COc1cc(OC)cc(C(=O)N2CCN(Cc3nc4cc(C(=O)N5CCCC5)ccc4n3C)CC2)c1
  GIV-Gai inh = 108.6 | HCMV NEC inh = x

SMILES: N#CC1=C(N)C(C#N)(C#N)C(c2ccccc2Cl)C2CN(Cc3ccccc3)CC=C12 (stereo not given)
  GIV-Gai inh = 188.0 | HCMV NEC inh = x

SMILES: N#CC1=C(N)C(C#N)(C#N)C(c2ccco2)C2CN(Cc3ccccc3)CC=C12 (stereo not given)
  GIV-Gai inh = -42.9* | HCMV NEC inh = -37.5

SMILES: CC(C)(C)NC(=O)/C(C#N)=C/c1ccc(OC(F)F)cc1
  GIV-Gai inh = x | HCMV NEC inh = -8.7

SMILES: COc1ccc(C2=CC(C3CC3)=C(C#N)C(=C(C#N)C#N)N2)cc1
  GIV-Gai inh = 65.2* | HCMV NEC inh = -65.2

SMILES: CN(C)c1ccc(C2=CC(C3CC3)=C(C#N)C(=C(C#N)C#N)N2)cc1
  GIV-Gai inh = 104.9 | HCMV NEC inh = 10.6

SMILES: O=C(c1cc2c(Cl)ccc3c2n1CCO3)N1CCC(N2CCCCC2)CC1
  GIV-Gai inh = 101.9 | HCMV NEC inh = -25.2

SMILES: CN1c2ccc(Cl)cc2-c2nc(SCC(=O)NC3CCCCC3)ncc2S1(=O)=O
  GIV-Gai inh = 105.9 | HCMV NEC inh = -16.9

SMILES: CN1c2cc(Cl)ccc2-c2nc(SCC(=O)NC3CCCCC3)ncc2S1(=O)=O
  GIV-Gai inh = 105.5 | HCMV NEC inh = 66.8*

SMILES: COc1cccc2c1C(=O)c1c(O)c3c(c(O)c1C2=O)C[C@@](O)(C(=O)CO)CC3OC1CC(N)C(O)C(C)O1 (stereo not given in full)
  GIV-Gai inh = x | HCMV NEC inh = -163.0

SMILES: COc1cccc2c1C(=O)c1c(O)c3c(c(O)c1C2=O)C[C@@](O)(C(=O)CO)C[C@@H]3O[C@H]1C[C@H](N)[C@H](O)[C@H](C)O1
  GIV-Gai inh = -14.4* | HCMV NEC inh = -177.5

SMILES: COc1ccc(CC(=O)OCC(=O)c2ccccc2)cc1OC
  GIV-Gai inh = x | HCMV NEC inh = -17.3

SMILES: Cc1ccc(NC(=O)c2sc3nc(-c4cc5ccccc5oc4=O)[nH]c(=O)c3c2C)c(C)c1
  GIV-Gai inh = 25.1* | HCMV NEC inh = -8.9

SMILES: Cc1c(C(=O)Nc2ccccc2)sc2nc(-c3cc4ccccc4oc3=O)[nH]c(=O)c12
  GIV-Gai inh = 102.1 | HCMV NEC inh = 1.9

SMILES: COc1ccc(OCc2nnc(SCC(=O)N(C3CCCCC3)C3CCCCC3)o2)cc1
  GIV-Gai inh = 103.0 | HCMV NEC inh = -13.0

SMILES: CC(=O)N(C(C)=O)N1C(=O)c2cccc3c(N4CCOCC4)ccc(c23)C1=O
  GIV-Gai inh = 164.8 | HCMV NEC inh = -97.0

SMILES: O=C1c2cccc3c(N4CCCCC4)ccc(c23)C(=O)N1c1ccccn1
  GIV-Gai inh = -28.6* | HCMV NEC inh = -120.2

SMILES: CC(=NC1CC1)c1c(C)[nH]n(-c2nc3ccccc3s2)c1=O
  GIV-Gai inh = x | HCMV NEC inh = -4.9

SMILES: Cc1ccccc1Nc1cc2ccccc2c(=O)[nH]1
  GIV-Gai inh = 87.6 | HCMV NEC inh = 57.9*

SMILES: Cc1nc2cc3ccccc3cc2c(=O)[nH]1
  GIV-Gai inh = 107.8 | HCMV NEC inh = -67.9

SMILES: Cc1nnc(NC(C)(C)CCl)s1
  GIV-Gai inh = x | HCMV NEC inh = -26.7

SMILES: CCn1c(O)c(C=Nc2cccc(O)c2)sc1=S
  GIV-Gai inh = 65.7* | HCMV NEC inh = -11.7

SMILES: CCn1c(O)c(/C=N/c2nc3ccccc3[nH]2)sc1=S
  GIV-Gai inh = x | HCMV NEC inh = -3.1

SMILES: CCN1CCN(C(=O)c2noc3c2CCCCC3)CC1
  GIV-Gai inh = 101.4 | HCMV NEC inh = 3.1

SMILES: Cc1nnc(NC(=O)c2ccc3c(c2)SC2=NS(=O)(=O)CCN23)s1
  GIV-Gai inh = x | HCMV NEC inh = -40.5

SMILES: COc1ccc(OC)c(NC(=O)C2=Cc3cc(C)ccc3OC=C2)c1
  GIV-Gai inh = 102.6 | HCMV NEC inh = -33.2

SMILES: Nc1cccc(-c2ncon2)c1
  GIV-Gai inh = 106.3 | HCMV NEC inh = 83.1*

SMILES: Nc1cccc(-c2cnco2)c1
  GIV-Gai inh = 105.2 | HCMV NEC inh = 3.9
